Data on four compounds can be found in ChEMBL document CHEMBL4368904 (J Med Chem, 2019).

The chains behind the UniProt entries cited, without tags or fusion partners.
UniProt Q60613, whole entry: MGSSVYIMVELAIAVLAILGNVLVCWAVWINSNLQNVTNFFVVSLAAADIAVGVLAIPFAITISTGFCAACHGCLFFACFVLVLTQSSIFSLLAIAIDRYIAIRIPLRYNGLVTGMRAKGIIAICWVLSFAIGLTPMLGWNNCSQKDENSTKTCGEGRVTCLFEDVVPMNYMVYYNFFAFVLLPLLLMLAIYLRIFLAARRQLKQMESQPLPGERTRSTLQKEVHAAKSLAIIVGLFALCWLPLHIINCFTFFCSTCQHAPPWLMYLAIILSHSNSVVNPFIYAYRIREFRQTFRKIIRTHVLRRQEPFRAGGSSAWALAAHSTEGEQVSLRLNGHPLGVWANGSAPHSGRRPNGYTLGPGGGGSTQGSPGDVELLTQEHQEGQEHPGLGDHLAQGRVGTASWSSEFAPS
UniProt Q60612, whole entry: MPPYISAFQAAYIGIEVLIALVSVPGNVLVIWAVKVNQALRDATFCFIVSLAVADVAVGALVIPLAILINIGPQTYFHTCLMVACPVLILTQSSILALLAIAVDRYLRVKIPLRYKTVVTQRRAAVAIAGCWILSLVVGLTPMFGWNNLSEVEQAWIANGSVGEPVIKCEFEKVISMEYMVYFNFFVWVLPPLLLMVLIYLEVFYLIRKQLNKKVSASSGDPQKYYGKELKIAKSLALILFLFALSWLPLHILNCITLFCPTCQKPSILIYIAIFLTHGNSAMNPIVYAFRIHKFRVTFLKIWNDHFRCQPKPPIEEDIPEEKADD
UniProt P30536, whole entry: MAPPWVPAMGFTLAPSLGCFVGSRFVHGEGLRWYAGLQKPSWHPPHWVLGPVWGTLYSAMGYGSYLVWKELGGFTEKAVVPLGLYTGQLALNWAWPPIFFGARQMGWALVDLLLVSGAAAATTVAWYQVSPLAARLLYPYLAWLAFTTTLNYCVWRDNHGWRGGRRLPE
UniProt P0DMS8, whole entry: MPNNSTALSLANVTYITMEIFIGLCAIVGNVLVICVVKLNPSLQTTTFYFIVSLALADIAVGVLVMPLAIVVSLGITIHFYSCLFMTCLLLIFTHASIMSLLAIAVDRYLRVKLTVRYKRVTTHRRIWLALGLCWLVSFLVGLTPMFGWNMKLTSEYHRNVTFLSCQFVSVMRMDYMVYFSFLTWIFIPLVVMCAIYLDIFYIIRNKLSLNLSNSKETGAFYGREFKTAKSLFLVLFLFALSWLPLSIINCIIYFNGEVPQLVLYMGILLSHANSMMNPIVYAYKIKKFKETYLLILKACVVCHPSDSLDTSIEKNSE

Experiment [1] has as its target Adenosine receptor A2a (Mus musculus, UniProt Q60613). Description: Displacement of [3H]2-[p-(2-carboxyethyl)phenylethylamino]-5-N-ethylcarboxamidoadenosine from mouse A2A adenosine receptor expressed in HEK293 cell membranes after 60 mins by scintillation proximity assay. Background: Loss of bound radioactivity is the signal in a displacement assay; it reports binding, not function.

The target of experiment [2] is Adenosine receptor A1 (Mus musculus) (UniProt Q60612). The experiment in a line: Agonist activity at mouse A1A adenosine receptor at 10 uM after 60 mins by [35S]GTPgammaS binding assay relative to (2S,3S,4R,5R)-5-(6-amino-9H-purin-9-yl)-N-ethyl-3,4-dihydroxytetrahydrofuran-2-carboxamide. The experiment is classed as functional. In general terms: Binding of GTPγS marks nucleotide exchange on a G protein.

Experiment [3] deals with Translocator protein (Homo sapiens, UniProt P30536). The experiment in a line: Inhibition of TSPO (unknown origin).
The target in experiment [4] is Adenosine receptor A2a (Mus musculus) (UniProt Q60613). The experiment in a line: Displacement of [3H]2-[p-(2-carboxyethyl)phenylethylamino]-5-N-ethylcarboxamidoadenosine from mouse A2A adenosine receptor expressed in HEK293 cell membranes at 10 uM after 60 mins by scintillation proximity assay relative to adenosine 5-N-ethyluronamide.
The target in experiment [5] is T1, Adenosine receptor A3 (Mus musculus, UniProt Q61618).
T1 sequence (Q61618 whole entry): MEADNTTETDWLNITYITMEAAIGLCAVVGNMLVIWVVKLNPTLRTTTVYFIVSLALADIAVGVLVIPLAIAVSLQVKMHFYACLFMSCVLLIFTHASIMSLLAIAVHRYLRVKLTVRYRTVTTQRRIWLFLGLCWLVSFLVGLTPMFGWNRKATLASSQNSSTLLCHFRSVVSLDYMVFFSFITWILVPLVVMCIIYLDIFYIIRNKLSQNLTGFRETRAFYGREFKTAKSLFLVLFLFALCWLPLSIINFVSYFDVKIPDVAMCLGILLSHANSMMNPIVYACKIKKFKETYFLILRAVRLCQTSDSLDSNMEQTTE
Description: Displacement of [125I]N6-(4-amino-3-iodobenzyl)adenosine-5-N-methyluronamide from mouse A3A adenosine receptor expressed in CHO cell membranes after 60 mins by scintillation proximity assay.

Experiment [6] deals with Adenosine receptor A3 (Homo sapiens, UniProt P0DMS8). The conditions noted are these: 10 uM.

By Ki is commonly meant the equilibrium dissociation constant of an inhibitor or competing ligand from its target. Read a high Ki as a looser hold on the target. For `O[C@@H]1[C@H](O)[C@@H](CCl)O[C@H]1n1cnc2c(NC3C[C@H]4CC[C@@H]3C4)ncnc21` (mixture of isomers), the affinity in experiment [1] corresponds to a Ki of 3.99 µM. Usually Emax stands for the greatest response seen or fitted, relative to the assay's reference. In turn, `OC[C@H]1O[C@@H](n2cnc3c(NC(C4CCC4)C4CCC4)ncnc32)[C@H](O)[C@@H]1O` displayed an Emax in experiment [2] of 101%. Compound `CCOC(=O)[C@@]12C[C@@H]1[C@@H](n1cnc3c(NC(C4CC4)C4CC4)nc(Cl)nc31)[C@H](O)[C@@H]2O` registered an inhibition constant Ki in experiment [3] of 2.5 µM.

As usually defined, the inhibition is the change of the read-out against control, counted positive when it falls. Read a high inhibition as a response far below the control. In experiment [4], `O[C@@H]1[C@H](O)[C@@H]2C[C@@H]2[C@H]1n1cnc2c(NC(C3CC3)C3CC3)nc(Cl)nc21` showed an inhibition of 34%. In addition, the Ki in experiment [5] is 1.06 µM. In experiment [6], this compound had an Emax of 50%.
